Measurements: US8173378B2, “Methods of using an alpha-1-adrenergic receptor having altered ligand affinity” (Pharmacome LLC, priority 2007, dated 2012)

Key:
[1] = molecular target: T1, α1L-adrenergic receptors in human prostate tissue segments (Homo sapiens, UniProt P35348); test: [3H]-silodosin binding in human prostate tissue segments; details: read-out: −log Ki (pKi) at [3H]-silodosin binding sites (converted)
T1 construct: from tissue; host or cells: human prostate tissue segments
T1 sequence (P35348 1-466): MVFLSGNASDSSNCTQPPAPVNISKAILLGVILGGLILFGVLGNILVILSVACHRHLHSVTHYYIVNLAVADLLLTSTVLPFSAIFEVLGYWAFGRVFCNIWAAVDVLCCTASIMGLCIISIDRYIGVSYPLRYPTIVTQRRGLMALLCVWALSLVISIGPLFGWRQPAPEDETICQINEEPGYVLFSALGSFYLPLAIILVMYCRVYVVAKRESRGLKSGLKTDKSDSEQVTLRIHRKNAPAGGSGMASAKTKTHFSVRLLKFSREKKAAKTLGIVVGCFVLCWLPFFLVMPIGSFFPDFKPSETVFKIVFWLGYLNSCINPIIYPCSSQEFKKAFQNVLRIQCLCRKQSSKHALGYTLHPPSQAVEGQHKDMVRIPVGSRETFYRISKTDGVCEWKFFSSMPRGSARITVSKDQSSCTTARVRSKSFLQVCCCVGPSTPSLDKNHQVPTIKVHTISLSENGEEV

α1A-adrenergic receptor = molecular target: T2, α1A-adrenergic receptor (Homo sapiens, UniProt P35348); details: α1A subtype; cited from earlier work
T2 sequence (P35348 1-466): T1 sequence (P35348 1-466)

α1L-adrenergic receptor = details: α1L subtype; cited from earlier work
[2] = molecular target: T3, α1A-adrenergic receptor in α1A cells (Homo sapiens, UniProt P35348); test: Whole-cell [3H]-silodosin binding in α1A cells (CHO-K1 expressing only ADRA1A)
T3 sequence (P35348 1-466): T1 sequence (P35348 1-466)

[3] = molecular target: T4, α1L-adrenergic receptor (α1A-adrenergic receptor / CRELD1α complex) in α1L cells (Homo sapiens, UniProt P35348); test: Whole-cell [3H]-silodosin binding in α1L cells (CHO-K1 coexpressing ADRA1A and CRELD1α)
T4 sequence (P35348 1-466): T1 sequence (P35348 1-466)
T4 sequence (Q96HD1 30-420 partner): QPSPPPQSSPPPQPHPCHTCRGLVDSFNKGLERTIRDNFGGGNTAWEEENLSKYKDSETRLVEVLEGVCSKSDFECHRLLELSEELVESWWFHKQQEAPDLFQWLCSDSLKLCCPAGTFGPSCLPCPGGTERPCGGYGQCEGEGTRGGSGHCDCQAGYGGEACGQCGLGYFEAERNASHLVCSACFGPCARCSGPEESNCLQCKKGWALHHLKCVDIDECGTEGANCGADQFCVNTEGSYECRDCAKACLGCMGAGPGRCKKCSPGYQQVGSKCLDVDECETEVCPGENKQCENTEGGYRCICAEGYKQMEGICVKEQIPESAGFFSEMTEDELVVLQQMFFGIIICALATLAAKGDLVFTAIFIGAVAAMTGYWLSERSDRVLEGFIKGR

- Ki [1]: 1.26 µM
- Ki [2]: 0.316 µM
- Ki [3]: > 1 µM
SMILES: COc1ccccc1N1CCN(CCN2C(=O)CC3(CCCC3)CC2=O)CC1.Cl.Cl [BMY 7378, 8-[2-[4-(2-methoxyphenyl)-1-piperazinyl]ethyl]8-azaspiro[4,5]decane7,9-dione dihydrochloride]
- Affinity (pKb) (α1A-adrenergic receptor): 6.9-5.6
- Affinity (pKb) (α1L-adrenergic receptor): 6.9-5.6
